Reference: US12398154B2, “Azaquinazoline pan-KRas inhibitors” (Mirati Therapeutics, Inc., priority 2020, dated 2025)

By UniProt entry, the sequences of proteins in these tests, tags left out. Where a name states a change or a piece, a line headed by the entry shows the natural chain unless it says otherwise.
UniProt P01116: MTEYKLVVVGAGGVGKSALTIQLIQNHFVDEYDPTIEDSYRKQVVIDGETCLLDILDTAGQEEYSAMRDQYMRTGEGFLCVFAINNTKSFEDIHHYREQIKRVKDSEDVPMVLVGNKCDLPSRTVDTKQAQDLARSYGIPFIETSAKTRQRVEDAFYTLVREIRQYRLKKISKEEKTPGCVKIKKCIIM

What was measured:
KRas Q61H = target: T1, KRas Q61H (Homo sapiens, UniProt P01116, Q61H); experiment: KRas binding assay (TR-FRET displacement); conditions: TR-FRET tracer displacement, 60-minute incubation at room temperature;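 further: TR-FRET signal read after one hour at room temperature, IC50 derived by four-parameter fitting of percent-of-control values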
T1 construct: Biotinylated KRas (corresponding to amino acids 1-169, produced at Accelegan Inc.); biotin (biotinylated); purchased Accelegan Inc

KRas G13D = target: T2, KRas G13D (Homo sapiens, UniProt P01116, G13D); experiment: KRas binding assay (TR-FRET displacement); conditions: TR-FRET tracer displacement, 60-minute incubation at room temperature;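 further: One-hour room temperature incubation before TR-FRET reading, IC50 from a four-parameter curve fit to percent-of-control data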
T2 construct: Biotinylated KRas (corresponding to amino acids 1-169, produced at Accelegan Inc.); biotin (biotinylated); purchased Accelegan Inc

Row | IC50 (KRas Q61H) | IC50 (KRas G13D) | Structure (SMILES)
1 | 0.213 µM | 0.2 µM | Cc1cccc2cccc(-c3ncc4c(N5CCCC6(CNC(=O)N6)C5)nc(OCC56CCCN5CCC6)nc4c3F)c12 (stereo not drawn) [Example 454, 7-(8-fluoro-2-((hexahydro-1H-pyrrolizin-7a-yl)methoxy)-7-(8-methylnaphthalen-1-yl)pyrido[4,3-d]pyrimidin-4-yl)-1,3,7-triazaspiro[4.5]decan-2-one]
2 | 0.94 µM | 0.767 µM | CC1(O)CCCN(c2nc(OCC34CCCN3CCC4)nc3c(F)c(-c4cccc5cccc(C6CC6)c45)ncc23)C1 (stereo not drawn) [Example 440, 1-(7-(8-cyclopropylnaphthalen-1-yl)-8-fluoro-2-((hexahydro-1H-pyrrolizin-7a-yl)methoxy)pyrido[4,3-d]pyrimidin-4yl)-3-methylpiperidin-3-ol]
3 | ≤ 0.002 µM | ≤ 0.002 µM | CCc1c(F)ccc2cc(O)cc(-c3ncc4c(N5CCC[C@@](C)(O)C5)nc(OC[C@]56CCCN5[C@H](COC(=O)N(C)C)CC6)nc4c3F)c12 [Example 313, ((3S,7aR)-7a-(((7-(8-ethyl-7-fluoro-3-hydroxynaphthalen-1-yl)-8-fluoro-4-((R)-3-hydroxy-3-methylpiperidin-1-yl)pyrido[4,3-d]pyrimidin-2-yl)oxy)methyl)hexahydro-1H-pyrrolizin-3-yl)methyl dimethylcarbamate]
4 | 12.1 µM | 11 µM | CNc1cc2n(n1)CCCN(c1nc(OCC34CCCN3CCC4)nc3c(F)c(-c4cccc5cccc(F)c45)ncc13)C2 [Example 263, 5-(8-fluoro-7-(8-fluoronaphthalen-1-yl)-2-((tetrahydro-1H-pyrrolizin-7a(5H)-yl)methoxy)pyrido[4,3-d]pyrimidin-4-yl)-N-methyl-5,6,7,8-tetrahydro-4H-pyrazolo[1,5-a][1,4]diazepin-2-amine]
5 | 2.81 µM | 1.67 µM | Cc1ccc(O)cc1-c1ncc2c(N3CCCC(C)(O)C3)nc(OCC34CCCN3CCC4)nc2c1F (stereo not drawn) [Example 432, 1-(8-fluoro-2-((hexahydro-1H-pyrrolizin-7a-yl)methoxy)-7-(5-hydroxy-2-methylphenyl)pyrido[4,3-d]pyrimidin-4-yl)-3-methylpiperidin-3-ol]
6 | ≤ 0.002 µM | ≤ 0.002 µM | C#Cc1c(F)ccc2cc(O)cc(-c3ncc4c(N5CC6C(=O)NC(=O)C6C5)nc(OC[C@@]56CCCN5C[C@H](F)C6)nc4c3F)c12 (stereo partly drawn) [Example 389, 5-(7-(8-ethynyl-7-fluoro-3-hydroxynaphthalen-1-yl)-8-fluoro-2-(((2R,7aS)-2-fluorohexahydro-1H-pyrrolizin-7a-yl)methoxy)pyrido[4,3-d]pyrimidin-4-yl)tetrahydropyrrolo[3,4-c]pyrrole-1,3(2H,3aH)-dione]
7 | 0.067 µM | 0.046 µM | C#Cc1cccc2cccc(-c3ncc4c(N5C[C@@H]6C(=O)NC(=O)[C@@H]6C5)nc(OCC56CCCN5CCC6)nc4c3F)c12 [Example 458, (3aR,6aS)-5-(7-(8-ethynylnaphthalen-1-yl)-8-fluoro-2-((hexahydro-1H-pyrrolizin-7a-yl)methoxy)pyrido[4,3-d]pyrimidin-4-yl)tetrahydropyrrolo[3,4-c]pyrrole-1,3(2H,3aH)-dione]
8 | 1.07 µM | 0.96 µM | CCc1cccc2cccc(-c3ncc4c(N5CCOCC(CO)C5)nc(OCC56CCCN5CCC6)nc4c3F)c12 (stereo not drawn) [Example 289, (4-(7-(8-ethylnaphthalen-1-yl)-8-fluoro-2-((hexahydro-1H-pyrrolizin-7a-yl)methoxy)pyrido[4,3-d]pyrimidin-4-yl)-1,4-oxazepan-6-yl)methanol]
9 | 6.35 µM | 5.97 µM | Fc1c(-c2cccc3cccc(Cl)c23)ncc2c(NCCCOC(F)F)nc(OCC34CCCN3CCC4)nc12 [Example 474, 7-(8-chloronaphthalen-1-yl)-N-(3-(difluoromethoxy)propyl)-8-fluoro-2-((tetrahydro-1H-pyrrolizin-7a(5H)-yl)methoxy)pyrido[4,3-d]pyrimidin-4-amine]
